Molecular target: NK2 (h), neurokinin receptor 2 (human (printed as (h))), P21452
Test: Cerep ExpresSProfile radioligand competition binding, reference compound (agonist radioligand)

Sequences of proteins named here, by UniProt entry; tags and fusion partners are left off.
NK2 (h), neurokinin receptor 2 (human (printed as (h))), P21452, UniProt P21452, whole entry: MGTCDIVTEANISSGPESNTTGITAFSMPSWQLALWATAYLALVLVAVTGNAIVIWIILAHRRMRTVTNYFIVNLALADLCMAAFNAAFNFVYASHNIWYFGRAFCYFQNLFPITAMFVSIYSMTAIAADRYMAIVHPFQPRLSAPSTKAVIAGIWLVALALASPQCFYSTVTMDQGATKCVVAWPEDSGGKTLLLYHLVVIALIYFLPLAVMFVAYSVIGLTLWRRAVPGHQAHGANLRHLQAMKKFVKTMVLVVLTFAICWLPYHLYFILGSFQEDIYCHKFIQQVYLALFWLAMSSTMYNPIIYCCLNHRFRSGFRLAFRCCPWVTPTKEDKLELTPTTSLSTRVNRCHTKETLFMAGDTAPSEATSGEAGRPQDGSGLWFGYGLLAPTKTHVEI

Ki: 2.5 nM
B1: [Nleu10]-NKA (4-10) (peptide)
chain: DSFVGLL
modifications: not checked

From patent US20170119913A1
